# Source: patent publication US10800749B2, “Centrally active and orally bioavailable antidotes for organophosphate exposure and methods for making and using them” (dated 2020)
# The chains behind the UniProt entries cited, without tags or fusion partners. Where a name states a change or a piece, a line headed by the entry shows the natural chain unless it says otherwise.
# UniProt P22303: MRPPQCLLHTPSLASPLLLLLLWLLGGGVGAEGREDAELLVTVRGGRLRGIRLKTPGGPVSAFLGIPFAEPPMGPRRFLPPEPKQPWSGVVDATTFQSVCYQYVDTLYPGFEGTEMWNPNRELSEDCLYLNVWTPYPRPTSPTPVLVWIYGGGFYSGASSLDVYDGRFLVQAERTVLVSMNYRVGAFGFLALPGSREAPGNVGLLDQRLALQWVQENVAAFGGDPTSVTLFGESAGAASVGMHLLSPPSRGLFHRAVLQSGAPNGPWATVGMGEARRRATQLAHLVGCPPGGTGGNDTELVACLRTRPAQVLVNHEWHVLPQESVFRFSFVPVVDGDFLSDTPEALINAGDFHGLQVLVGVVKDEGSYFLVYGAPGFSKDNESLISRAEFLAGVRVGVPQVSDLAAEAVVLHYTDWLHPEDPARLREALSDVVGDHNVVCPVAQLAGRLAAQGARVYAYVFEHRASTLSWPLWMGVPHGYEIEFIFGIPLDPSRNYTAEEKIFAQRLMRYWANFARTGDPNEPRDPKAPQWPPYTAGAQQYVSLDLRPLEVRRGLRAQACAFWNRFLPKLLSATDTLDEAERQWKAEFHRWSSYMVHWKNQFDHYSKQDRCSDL
# Tests used:
# VX-inhibited hAChE = VX-inhibited hAChE (Homo sapiens, UniProt P22303); test: In vitro oxime reactivation of VX-hAChE conjugate (initial screen); settings: 0.67 mM oxime, 37° C., 0.10 M phosphate buffer pH 7.4; approximate, uncertainty about 50%
# sarin-inhibited hAChE = sarin-inhibited hAChE (Homo sapiens, UniProt P22303); test: In vitro oxime reactivation of sarin-hAChE conjugate (initial screen); settings: 0.67 mM oxime, 37° C., 0.10 M phosphate buffer pH 7.4; approximate, uncertainty about 50%
# [1] = Ionization state analysis combining UV, 1H NMR and oximolysis (Table 3)
# [2] = Oxime pKa determination by 1H NMR in D2O buffers
# paraoxon-inhibited hAChE = paraoxon-inhibited hAChE (Homo sapiens, UniProt P22303); test: In vitro oxime reactivation of paraoxon-hAChE conjugate (initial screen); settings: 0.67 mM oxime, 37° C., 0.10 M phosphate buffer pH 7.4; approximate, uncertainty about 50%
# male CD-1 mice = settings: i.m., 24-h mortality
# [3] = pH dependence of VX Flu-MP oximolysis; settings: 0.1 mM VX Flu-MP, 0.5 mM oxime, 22° C., 20 mM phosphate-pyrophosphate buffers
# [4] = pH dependence of ATCh oximolysis; settings: 1.0 mM ATCh, 0.1 mM oxime, 22° C., 20 mM phosphate-pyrophosphate buffers
# [5] = molecular target: cyclosarin-inhibited hAChE (Homo sapiens, UniProt P22303); test: In vitro oxime reactivation of cyclosarin-hAChE conjugate (initial screen); settings: 0.67 mM oxime, 37° C., 0.10 M phosphate buffer pH 7.4; approximate, uncertainty about 50%
# [6] = Oxime pharmacokinetics in mice (plasma and brain)
# [7] = single i.m. dose, 80 mg/kg RS194B or 30 mg/kg RS41A
Compound,"kobs, first order reactivation rate constant (VX-inhibited hAChE) [min 1]","kobs, first order reactivation rate constant (sarin-inhibited hAChE) [min 1]","zwitterionic species, share of all forms ([1]; pH 8.4)","pKa of oxime group from 1H NMR, equivalent in H2O ([2]; D2O value minus 0.5)","pKa of oxime group from 1H NMR chemical shift ([2]; in D2O, 2.0 mM oxime)","kobs, first order reactivation rate constant (paraoxon-inhibited hAChE) [min]","LD50, acute toxicity (male CD-1 mice) [mg/kg]",pKa from pH dependence of VX Flu-MP oximolysis [3],pKa from pH dependence of ATCh oximolysis [4],"kobs, first order reactivation rate constant [5] [min 1]","fraction in protonated, cationic form ([1]; physiological pH 7.4)","Oral absorption (bioavailability F) ([6]; estimated from PK parameters upon intravenous and oral administration, not very accurate) [%]","Signs of toxicity on repetitive dosing ([6]; loading dose 220 mg/kg, maintenance oral doses 110 mg/kg every 2 hr)","Concentration found in CNS ([6]; mice, i.m.)","Maximal brain concentration [6, 7] [µg/mL]","Maximal brain concentration, molar equivalent [6, 7]","Maximal concentration in plasma [6, 7] [µg/mL]","Maximal concentration in plasma, molar equivalent [6, 7] [μιη]","Time for maximal brain concentration to reduce in half [6, 7] [min]","Time for maximal plasma concentration to decay by half [6, 7] [min]"
2-pyridinealdoxime methiodide,0.15,0.16,more than 50%,8.1,8.6,0.087,106,8.1,8,0.025,–,–,–,–,–,–,–,–,–,–
O=C(C=NO)NCCN1CCCCCC1,–,–,–,–,–,–,–,–,–,–,more than 90%,≥ 60,No signs of toxicity,up to 37 μιη,7.9,approximately 37 μM,10,54,60,12
N-(2-(4-Azatricyclo[4.3.1.13′8]undecan-4-yl)ethyl)-2-(hydroxyimino)acetamide,–,–,–,–,–,–,238,–,–,–,–,–,–,–,–,–,–,–,–,–
